Assay results reported in PubChem BioAssay AID881 (National Center for Advancing Translational Sciences (NCATS), 2007).
This is a selection; strong and weak results do not stand in their true shares. The source made the active and inactive calls. The call rests on the fitted dose curve; in most records, active means well fitted inhibition curve with a large enough effect; inconclusive means small, poorly fitted or top-dose-only effect; inactive means no such curve, though single readings can be large or run the other way.

Protein sequences, listed by entry. Tags and fused reporters are not part of them.
UniProt O15296, whole entry: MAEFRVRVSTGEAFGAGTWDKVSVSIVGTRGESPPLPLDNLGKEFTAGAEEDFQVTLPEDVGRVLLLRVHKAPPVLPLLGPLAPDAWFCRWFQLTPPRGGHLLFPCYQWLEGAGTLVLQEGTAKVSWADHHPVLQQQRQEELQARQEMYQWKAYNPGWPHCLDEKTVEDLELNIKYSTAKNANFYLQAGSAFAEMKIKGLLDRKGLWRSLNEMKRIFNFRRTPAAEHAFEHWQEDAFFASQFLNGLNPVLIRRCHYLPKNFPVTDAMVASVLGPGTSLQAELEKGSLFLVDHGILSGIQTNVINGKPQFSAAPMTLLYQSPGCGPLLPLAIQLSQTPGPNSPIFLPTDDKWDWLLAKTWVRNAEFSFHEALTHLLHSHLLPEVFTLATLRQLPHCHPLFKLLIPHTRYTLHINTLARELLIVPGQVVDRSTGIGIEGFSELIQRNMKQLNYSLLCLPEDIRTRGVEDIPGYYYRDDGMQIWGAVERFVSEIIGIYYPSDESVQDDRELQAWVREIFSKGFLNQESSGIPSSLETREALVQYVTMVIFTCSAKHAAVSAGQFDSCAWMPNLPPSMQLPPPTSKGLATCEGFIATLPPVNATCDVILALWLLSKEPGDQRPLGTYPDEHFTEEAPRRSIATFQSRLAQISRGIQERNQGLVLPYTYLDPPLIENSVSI

What follows are molecules tested against Polyunsaturated fatty acid lipoxygenase ALOX15B (Homo sapiens) (UniProt O15296) (assay: qHTS Assay for Inhibitors of 15-hLO-2 (15-human lipoxygenase 2)). Conditions: purified 15hLO-2, xylenol orange hydroperoxide absorbance; at 57.1 µM (top of the series) unless noted.
Description: Assay Overview: NIH Molecular Libraries Screening Centers Network [MLSCN] NIH Chemical Genomics Center [NCGC] MLSCN Grant: MH081283-01A1 PI Name: Holman, T.R., University of California, Santa Cruz Human lipoxygenase 15hLO-2 is a member of the closely related lipoxygenase family of enzymes which catalyze the site-specific oxidation of arachidonic acid to various hormone precursor molecules and as such is a candidate for drug development in a variety of disease areas, such as cancer and inflammation. Inhibition of 15hLO-2 activity was screened by utilizing arachidonic acid as a substrate. The extent of hydroperoxide product formation was measured by a secondary chromogenic reaction in which xylenol orange (XO, Sigma-Aldrich, cat. number 39,818-7) reacts with the ferric ions produced from the reaction between the hydroperoxide and ferrous ions. The Fe(III)-XO complex is characterized with red-shifted absorbance at 560 nm. A purified preparation of human 15hLO-2 was supplied by Professor Ted Holman, University of California, Santa Cruz.
Assay Protocol: Buffer: 25 mM Hepes pH 7.5, 0.01% Triton X-100. Reagents/Controls: Buffer in columns 3 and 4 as negative control (no enzyme). Substrate solution: 45 uM arachidonic acid (Sigma-Aldrich, St. Louis, MO) final concentration dispensed throughout the plate. Enzyme: 50 nM 15hLO-2 final concentration in columns 1, 2, 5-48. Column 1 is neutral (100% activity). Column 2 contained pin-transferred titration of NDGA (nordihidroguaiaretic acid, Sigma-Aldrich, N 5023, top concentration 10 mM in DMSO, then 1:2 dilution in duplicate). (Dilution factor: 23 nL into 4 uL.) Chromogenic detection reagent (divalent iron/xylenol orange, Fe-XO): 200 uM xylenol orange plus 300 uM ferrous ammonium sulfate prepared freshly in 50 mM sulfuric acid. Assay Steps: Three uL of enzyme were dispensed to 1536-well Greiner black clear bottom plates. Compounds and controls (23 nL) were transferred via Kalypsys PinTool. The plates were incubated for 15 min at room temperature, and then 1 uL of substrate solution was added to start the reaction. After room temperature incubation for 90 minutes, 4 uL of Fe-XO solution was added to each well followed by a short spin (1000 rpm, 15 sec) and the plates were then incubated for 30 min. The absorbance at 405 and 573 nm were measured using ViewLux (Perkin-Elmer) High-throughput CCD imager and absorbance protocol settings. The 573-to-405 absorbance ratio was used to compute reaction progress.
Further: nearly all actives have a fitted effect of over 60% in size.
On the % scale 0 is the no-effect control and ±100 the full control effect.

| SMILES | activity change, negative = inhibition |
| --- | --- |
| C/C1=C2N=C(/C=C3N=C(/C(C)=C4\[N-][C@@](C)([C@H]5N=C1[C@@](C)(CCC(=O)NC[C@H](C)OP(=O)([O-])O[C@@H]1[C@H](O)[C@H](n6cnc7cc(C)c(C)cc76)O[C@@H]1CO)[C@@H]5CC(N)=O)[C@](C)(CC(N)=O)[C@H]4CCC(N)=O)[C@@](C)(CC(N)=O)[C@@H]\3CCC(N)=O)C(C)(C)[C@@H]/2CCC(N)=O.[C-]#N.[Co+3] | inactive: -0.147% [at 25.6 µM] |
| CP(=O)(OC12CC3CC(CC(C3)C1)C2)OC12CC3CC(CC(C3)C1)C2 | inactive: 7.58% |
| CP(=O)(Nc1ccc(Cl)cc1)Oc1ccc(F)cc1 (stereo unspecified) | inactive: 1.46% |
| CC(C)(C)c1ccc(OP(C)(=O)O)cc1 | inactive: 0.407% |
| N#[O+].[C-]#N.[C-]#N.[C-]#N.[C-]#N.[C-]#N.[Fe+2].[Na+].[Na+] | inactive: 6.49% |
| CCN(CC)CC(O)COC(=O)C(O)(c1ccccc1)C1CCCCC1 (stereo unspecified) | inactive: 12.2% |
| CP(=O)(Oc1ccccc1)N1CCOC1=O (stereo unspecified) | inactive: 1.17% |
| OCCSCCO | inactive: -2.98% |
| COc1ccccc1OP(C)(=O)Nc1c(C)n(C)n(-c2ccccc2)c1=O (stereo unspecified) | inactive: 1.89% |
| Cc1c(NP(C)(=O)Oc2ccc(C(C)C)cc2)c(=O)n(-c2ccccc2)n1C (stereo unspecified) | inactive: 2.73% |
| COc1ccccc1OP(C)(=O)Nc1ccc(C)cc1C (stereo unspecified) | inactive: 0.644% |
| CP(=O)(Nc1ccccn1)Oc1ccccc1 (stereo unspecified) | inactive: 2.75% |
| CN(C)CCOC(=O)C(O)(c1ccccc1)C1CCCC1 (stereo unspecified) | inactive: 1.06% |
| COc1ccc(OP(C)(=O)Nc2ccccn2)cc1 (stereo unspecified) | inactive: 3.33% |
| COc1ccccc1OP(C)(=O)Nc1ccc(C)c(C)c1 (stereo unspecified) | inactive: -3.98% |
| CP(=O)(Nc1ccccc1)Oc1ccc(F)cc1 (stereo unspecified) | inactive: -4.27% |
| Cc1cccc([N+](=O)[O-])c1[N+](=O)[O-] | inactive: -2.15% |
| CCC(C)(OO)OOC(C)(CC)OO (stereo unspecified) | inactive: 9.82% |
| CP(=O)(Nc1ccccc1F)Oc1ccccc1 (stereo unspecified) | inactive: 3.29% |
| NNC(NN)NN.n1nc(-c2nn[nH]n2)n[nH]1 | inactive: -7.66% [at 11.4 µM] |
| [NH4+].[O-][Cl+3]([O-])([O-])[O-] | inactive: -9.4% |
| CCN(CCCl)Cc1ccccc1C | inactive: -5.55% |
| Cc1ccccc1NP(C)(=O)Nc1ccccc1C | inactive: 11.2% |

| SMILES | activity change, negative = inhibition |
| --- | --- |
| CCOP(=O)(CC)OCC | inactive: -9.2% |
| CCOP(C)(=S)SCC(=O)NC(C)(CC)C(=O)O (stereo unspecified) | inactive: -13.1% [at 11.4 µM] |
| Cc1ccc([N+](=O)[O-])c([N+](=O)[O-])c1 | inactive: -4.6% |
| Cc1c([N+](=O)[O-])cccc1[N+](=O)[O-] | inactive: -7.61% |
| COc1ccc(OP(C)(=O)Nc2cccc(Br)c2)cc1 (stereo unspecified) | inactive: 6.54% |
| CN(C)CCOC(=O)C(O)(c1ccccc1)C1CCCCC1 (stereo unspecified) | inactive: 7.44% [at 11.4 µM] |
| COc1ccccc1OP(C)(=O)Nc1c(C)cccc1C (stereo unspecified) | inactive: 3.5% |
| Cc1nc2ccc3ccccc3c2s1.O=[N+]([O-])c1cc([N+](=O)[O-])c(O)c([N+](=O)[O-])c1 | inactive: -21.9% |
| Cc1cc(C)cc(OP(C)(=O)Nc2ccccn2)c1 (stereo unspecified) | inactive: 5.26% |
| Cc1ccc(C)c(NP(C)(=O)Oc2ccccc2)c1 (stereo unspecified) | inactive: -4% |
| Cc1cc(C)cc(OP(C)(=O)Nc2ccc(C)cc2C)c1 (stereo unspecified) | inactive: 4.3% |
| Cc1ccc([N+](=O)[O-])cc1[N+](=O)[O-] | inactive: 1.24% |
| O=[N+]([O-])OCC(CO[N+](=O)[O-])(CO[N+](=O)[O-])CO[N+](=O)[O-] | inactive: -10.6% [at 0.0915 µM] |
| O=[N+]([O-])c1cccc([N+](=O)[O-])c1 | inactive: -2.69% |
| Cc1ccc(NP(C)(=O)Oc2ccccc2)c(C)c1 (stereo unspecified) | inactive: -6.01% |
| COc1ccccc1OP(C)(=O)Nc1ccc(C)cc1 (stereo unspecified) | inactive: 2.92% |
| COc1ccc(OP(C)(=O)Nc2cccc(F)c2)cc1 (stereo unspecified) | inactive: -3.24% |
| O=[N+]([O-])[O-].[NH4+] | inactive: -5.32% |
| CCOP(C)(=S)SCC(=O)NC(C)C(=O)O (stereo unspecified) | inactive: -8.52% |
| CP(=O)(Nc1ccccn1)Oc1ccc(Cl)cc1 (stereo unspecified) | inactive: 9.95% |
| CP(=O)(NC(=O)Nc1ccccc1)Oc1ccccc1 (stereo unspecified) | inactive: -3.38% |
| CP(=S)(Nn1cnnc1)Oc1ccccc1 (stereo unspecified) | inactive: -4.03% |
| N1=C(c2nnc(-c3nn[nH]n3)nn2)NNN1 | inactive: 23.3% [at 11.4 µM] |
